According to patent US10159756B2, “Complex of mannosyl serum albumin, method of preparing the same, optical imaging probe and kit comprising the same” (Korea University Research and Business Foundation, priority 2014, dated 2018):

Assay: Average size measured by DLS (dynamic light scattering)
Assay type: physicochemical
Settings: measured five times
Method: The sizes of HAS and MSA were measured by DLS (dynamic light scattering). The measurement was performed five times in order to ensure uniformity.

## HSA: human serum albumin
  average size: 6.80±1.3 nm
